Experiments:
[1] = tested on: U87 cells; experiment: MTT cell viability assay, U87; format: cell-based; settings: 8 days, IFN-γ dose-response
[2] = tested on: Akt, MAPK, GSK3-β, snail, slug, KLF4 in SK-BR-3 cells; experiment: Western blot of erbB downstream signaling and Snail/Slug, SK-BR-3; format: cell-based, human
[3] = tested on: MDA-MB-231 cells; experiment: MTT cell viability assay, MDA-MB-231; format: cell-based; settings: FIG. 43 / FIG. 55C
[4] = tested on: MCF10A cells; experiment: MTT cell viability assay, MCF10A; format: cell-based; settings: 8 days
[5] = tested on: SK-BR-3 cells

Substance | cell viability [1] | Akt pathway activity ([2]; 24 hours (FIG. 20A, 20B)) | snail protein level ([2]; Western blot) | cell viability [3] | slug protein level ([2]; Western blot) | cell viability [4] | cell viability (cytotoxicity) [5]
C225: anti-EGFR mAb, also known as cetuximab | failed to respond | but not C225 | but not C225 | responded minimally | – | – | –
IFN-β: recombinant human Interferon-beta | – | – | dramatically reduce snail | – | not slug | even low doses of IFN-β were cytotoxic to these cells | cytotoxic to tumor cells even at small doses
